## Measured affinities in a library of Ab-14 heavy chain variants

Data: MIT Lincoln Laboratory AlphaSeq set, Li et al. 2023, doi:10.1038/s41467-023-39022-2, as distributed in FLAb.

Target: peptide PDVDLGDISGINAS, taken from heptad repeat 2 (HR2) of SARS-CoV-2 spike.

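Designed CDR sequences, proposed from the first random library and measured here. Their group label is 14H_En_Gibbs (En: ensemble of fine-tuned language models; Gibbs: Gibbs sampling). The scFvs were displayed on barcoded MATa yeast, the peptide on MATalpha yeast. Pairs that bind mate more often; barcode pairs of the diploids are counted by sequencing. A regression on co-assayed BCL2-family reference pairs converts the normalised counts of each replicate to an apparent Kd. Each pool was mated in six replicate cultures.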

Each scFv is VH, the linker GGGGSGGGGSGGGGS, VL, as in the parent Ab-14, and differs from it in the CDRs of the heavy chain only.
VH: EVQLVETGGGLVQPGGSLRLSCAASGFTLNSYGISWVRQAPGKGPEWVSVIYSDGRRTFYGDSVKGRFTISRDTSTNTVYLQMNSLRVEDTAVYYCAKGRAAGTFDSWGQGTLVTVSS
VL: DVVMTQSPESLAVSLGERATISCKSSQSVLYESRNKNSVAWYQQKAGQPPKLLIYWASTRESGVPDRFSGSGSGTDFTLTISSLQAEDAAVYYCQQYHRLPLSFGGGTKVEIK

Each variant is given by its three heavy chain CDRs, as the data file delimits them; those of the parent are GFTLNSYGIS, VIYSDGRRTFYGDSVK, GRAAGTFDS. Numbers give log10(Kd / nM), so 0 is 1 nM and 3 is 1 µM. Smaller is tighter. A mean of the replicates is given; it leaves out those without a signal. "ND" marks a missing value. The strain was present, yet no cells mated with the target were sequenced in that replicate, which points to weak or no binding. The parent sequence was in this pool as ten entries: three were never detected, three once, and four in most replicates, with averages from 0.34 to 2.37. Nonspecific signal, from three strains lacking the peptide, appeared in 1% of pairings of all heavy chain designs, centred on 2.08 (5% of these signals below 0.84); values are not corrected for it. Also given: how often the same scFv was detected with the empty control strains, with their mean in brackets. In the paper, a design with two or fewer of six values counts as a poor binder. The range of this assay differs from that of the first round, and the authors advise against merging the two.

CDR-H1	CDR-H2	CDR-H3	log10 Kd (nM) by replicate	mean log10 Kd (nM)	empty controls
GFDLQEYGIS	VIYADGQRTKVTDNVK	GQVTGTAFV	ND ND ND ND ND ND	ND	0 of 18
GKDLDEQGIS	VIYADGTRTAAANTVK	GEIAGTLKV	ND ND ND ND ND ND	ND	0 of 18
GKLLDEYGIS	VIYADGKRMVYANSVK	GNLTDTLLV	ND ND ND ND ND ND	ND	0 of 18
GFQLDEFGIS	VIYADGVRSSYVDDVK	GEGTGAFSV	ND ND ND ND ND ND	ND	0 of 18
GFDLNEYGIS	VIYADGRRTAYVQSVK	GKNNMVDSV	ND ND ND ND ND ND	ND	0 of 18
GFDLEEMGIS	VIYADGSRKKYQDAVK	GHVSGDFDE	ND ND ND ND ND ND	ND	0 of 18
GFEIDEYGIS	VIYADGRRRAYADDVK	GNDIGGFDL	ND ND ND ND ND ND	ND	0 of 18
GFSLDEYGIS	VIYADGIRQHYSDQVK	GVKFGNVIL	ND ND ND ND ND ND	ND	0 of 18
GKDLNEYGIS	VIYADGIRVMYQNQVK	GNINGSFTF	ND ND ND ND ND ND	ND	0 of 18
GGDIQDYGIS	VIYADGQRASYADEVK	GNIGGIFSD	ND ND ND 3.01 ND ND	3.01	0 of 18
GFDIDEMGIS	VIYADGQRKAYTENVK	GNSMGMTLA	ND ND ND ND ND ND	ND	0 of 18
FNIGEDYGIS	VIYADGLRSAYVNSVK	GEVAGTFDS	ND ND ND 2.15 ND 1.88	2.02	0 of 18
GYDLNEYGIS	VIYADGRRVAYIDDVK	GHVSDHFAL	ND ND ND ND ND ND	ND	2 of 18 (2.31)
GFDLDQYGIS	VIYADGKRVAYTDDVK	GVQGGMALV	ND ND ND ND ND ND	ND	1 of 18 (2.11)
GFDLNEYGVS	VIYADGFRTSYTDSVK	GNVVDLSMA	ND ND ND ND ND ND	ND	0 of 18
GDFLDEYGIS	VIYADGSRSSYADKVK	GHNFGLKMV	ND ND ND ND ND ND	ND	0 of 18
GFGLSEYGIS	VIYADGMRTSYDNSIK	GALAGTFDE	ND ND ND ND ND ND	ND	0 of 18
GADINEYGIS	VIYADGNRIAYQDQVK	GFNAGSFDI	ND 4.50 ND ND ND ND	4.50	0 of 18
GWDLEHYGIS	VIYADGKRSGYSNAVK	GQQAGTFNT	0.33 -0.71 ND 0.24 -0.81 -1.35	-0.46	0 of 18
GFDIEEYGIS	VIYADGDRANYDQKVK	GTIAGTLVM	0.43 1.01 0.62 -0.06 0.79 0.65	0.57	1 of 18 (3.84)
GFDLEKYGIS	VIYADGYRSAYASNVK	GGEAGTFHF	ND ND ND ND ND ND	ND	0 of 18
GFDINEYGIS	VIYADGMRTAYVQQVK	GQNLGFVEV	ND ND ND ND ND ND	ND	0 of 18
GNDIDEYGIS	VIYADGRRTAYDEAVK	GEIAGSFFH	ND ND ND ND ND ND	ND	0 of 18
GFGLSEYGIS	VIYADGVRASYADNVK	GFNYGVDIL	ND ND ND ND ND ND	ND	0 of 18
GDDLEEYGIS	VIYADGKRKAYKNKAK	GQTAGSFDV	ND ND ND ND ND ND	ND	2 of 18 (2.57)
GYDIQDYGIS	VIYADGVRVAYHQSVK	GQTAGIFLL	ND ND ND ND ND ND	ND	0 of 18
GFNLDEYGIS	VIYADGIRAAYQNSVK	GFTPFVVAI	ND ND ND ND ND ND	ND	0 of 18
GFTLNEYGIS	VIYADGMRTQYADQVK	GNLVATVMT	ND ND ND ND ND ND	ND	0 of 18
GQDLSEYGVS	VIYADGVRRSYAESVK	GNTSGNFSS	ND ND ND ND ND ND	ND	0 of 18
GFPIDEYGIS	VIYADGRRTVYSDNVK	GNYGASIAI	ND ND 2.97 2.30 ND ND	2.63	0 of 18
GFSLDEYGIS	VIYADGMRARYSDAVK	GVKVGNVIM	ND ND ND ND ND ND	ND	0 of 18
GFDVDEFGIS	VIYADGFRTSYAADVK	GSQVGNGLV	ND ND 1.46 ND ND ND	1.46	1 of 18 (1.42)
GFQIDEYGIS	VIYADGKRSMYADKVK	GVDADTMMF	ND ND ND ND ND ND	ND	0 of 18
GFSIDEYGIS	VIYADGMRTAYVESVK	GTIDENFTT	ND ND ND ND 4.07 ND	4.07	0 of 18
GFDLEEMGVS	VIYADGIRFAYAQDVK	GQAAGAFDL	ND ND ND ND ND 3.16	3.16	0 of 18
GFDISEYGIS	VIYADGMRSALINSVK	GTLSGTFIA	ND 2.01 ND ND ND ND	2.01	0 of 18
GFDINEMGIS	VIYADGQRLFYAQEVK	GENTGTFGM	ND ND ND ND ND ND	ND	0 of 18
GFDLQEYGIS	VIYADGQRTKVTDNVK	GNVTFTAGV	ND ND ND ND ND ND	ND	0 of 18
GDDLENVGIS	VIYADGKRKAYAQKVK	GHTGGTFAD	ND ND ND ND ND ND	ND	1 of 18 (1.32)
GFLIDEYGIS	VIYADGQRKMYQDNVK	GNVGSLGSV	0.80 0.38 0.22 2.05 0.11 0.42	0.66	0 of 18
GFDIQEYGIS	VIYADGQRAYYSDAVK	GNIGAIFSD	ND ND ND ND ND ND	ND	0 of 18
GFNLDEYGIS	VIYADGLRRQYVDDVK	GSHADMFNM	ND ND ND ND ND ND	ND	0 of 18
GMDLQEYGIS	VIYSDGVREAYTNDFK	GQIAGTIDL	ND ND ND ND ND ND	ND	0 of 18
GFDLEEYGIS	VIYADGVREAYTENVK	GNSMGMDML	ND ND ND ND ND ND	ND	0 of 18
GFSLEEFGIS	VIYADGSSRAYAQDVK	GGTAGIFVV	ND ND ND ND ND ND	ND	0 of 18
GFSLDEYGIS	VIYADGIRAHYSDQVK	GVKNGNVIM	ND ND 2.99 ND ND 3.30	3.15	2 of 18 (3.55)
GFNINEYGIS	VIYADGKRTAYSESVK	GNSAGTFNH	0.06 -0.19 -0.23 -0.19 -0.08 -0.04	-0.11	1 of 18 (2.72)
GFSLDEYGIS	VIYADGRRTMYCDNFK	GELGCTFVI	ND ND ND ND ND ND	ND	0 of 18
GRDLESYGIS	VIYADGRRKAYHDSVK	GTNGGVSFV	ND ND ND ND ND ND	ND	0 of 18
GFGMEEFGIS	VIYADGQRLAYADEVK	GENAGSFDI	ND ND ND ND ND ND	ND	0 of 18

The last 8 entries again:

| CDR-H1 | CDR-H2 | CDR-H3 | log10 Kd (nM) by replicate | mean log10 Kd (nM) | empty controls |
|---|---|---|---|---|---|
| GMDLQEYGIS | VIYSDGVREAYTNDFK | GQIAGTIDL | ND ND ND ND ND ND | ND | 0 of 18 |
| GFDLEEYGIS | VIYADGVREAYTENVK | GNSMGMDML | ND ND ND ND ND ND | ND | 0 of 18 |
| GFSLEEFGIS | VIYADGSSRAYAQDVK | GGTAGIFVV | ND ND ND ND ND ND | ND | 0 of 18 |
| GFSLDEYGIS | VIYADGIRAHYSDQVK | GVKNGNVIM | ND ND 2.99 ND ND 3.30 | 3.15 | 2 of 18 (3.55) |
| GFNINEYGIS | VIYADGKRTAYSESVK | GNSAGTFNH | 0.06 -0.19 -0.23 -0.19 -0.08 -0.04 | -0.11 | 1 of 18 (2.72) |
| GFSLDEYGIS | VIYADGRRTMYCDNFK | GELGCTFVI | ND ND ND ND ND ND | ND | 0 of 18 |
| GRDLESYGIS | VIYADGRRKAYHDSVK | GTNGGVSFV | ND ND ND ND ND ND | ND | 0 of 18 |
| GFGMEEFGIS | VIYADGQRLAYADEVK | GENAGSFDI | ND ND ND ND ND ND | ND | 0 of 18 |